# Assay results from patent US20180318263A1, “TREATMENT OF PROSTATE CANCER CELLS WITH FAT OXIDATION INHIBITORS AND ENZALUTAMIDE” (The Regents of the University of Colorado, a body corporate, priority 2016, published 2018).
# Tested on: androgen receptor (AR)
# Assay: AR expression in LNCaP CPT1A-KD clones treated with enzalutamide
# Format: cell-based, human
# Settings: LNCaP CPT1AKD clones, enzalutamide over 2 days
smiles,measurement,value
CNC(=O)c1ccc(N2C(=S)N(c3ccc(C#N)c(C(F)(F)F)c3)C(=O)C2(C)C)cc1F [enzalutamide],AR full length and ARv7 variant expression,increase in AR full length and ARv7 variant
